The text below walks through data of paper PMC12350680.

Amino acid sequences for entries named in this document (tags omitted). A change or cut given only in a name is not applied to a line headed by its entry.
UniProt P02550: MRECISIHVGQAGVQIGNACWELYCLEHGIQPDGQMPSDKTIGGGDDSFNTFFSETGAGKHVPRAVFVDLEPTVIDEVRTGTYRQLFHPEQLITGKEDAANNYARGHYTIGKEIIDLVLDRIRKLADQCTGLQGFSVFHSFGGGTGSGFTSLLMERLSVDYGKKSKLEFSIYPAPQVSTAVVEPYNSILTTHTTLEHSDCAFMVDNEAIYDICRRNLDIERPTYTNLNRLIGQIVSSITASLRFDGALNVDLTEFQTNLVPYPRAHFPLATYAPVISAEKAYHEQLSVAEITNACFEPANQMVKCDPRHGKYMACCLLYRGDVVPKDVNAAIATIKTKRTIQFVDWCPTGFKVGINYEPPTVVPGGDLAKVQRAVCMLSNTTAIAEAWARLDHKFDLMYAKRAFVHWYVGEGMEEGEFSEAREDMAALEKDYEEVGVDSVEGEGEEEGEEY

For this assay, the target named is microtubules pre-polymerized from porcine brain tubulin (porcine) (UniProt P02550). The experiment in a line: co-sedimentation; SSNA-1 with GMPCPP microtubules pre-polymerized from porcine brain tubulin, 20 µM each (1:1), BRB10, 4 min at room temperature, sedimented at 9777g and 25 °C; SDS-PAGE band intensities.
As for SSNA-1(1-96) (domain or fragment), the concentration of SSNA-1 co-sedimented with microtubules (of 20 µM) worked out at 8.2 µM and the percent of SSNA-1 co-sedimented with microtubules was 41%.
The matching figures for SSNA-1(1-100) (domain or fragment): 9.9 µM and 50%.
The matching figures for SSNA-1(R18E/Y97E) (natural protein): 2.4 µM and 12%.
SSNA-1(1-97) (domain or fragment): the concentration of SSNA-1 co-sedimented with microtubules (of 20 µM) worked out at 9.3 µM and the percent of SSNA-1 co-sedimented with microtubules was 46%.
Turning to SSNA-1(Y97E) (natural protein), the concentration of SSNA-1 co-sedimented with microtubules (of 20 µM) was found to be 9.5 µM and the percent of SSNA-1 co-sedimented with microtubules was found to be 48%.
On the same counts, the results for SSNA-1(19-105) (domain or fragment) are 2.6 µM and 13%.
In turn, SSNA-1(18-105) (domain or fragment) showed a percent of SSNA-1 co-sedimented with microtubules of 30%.
On the same count and under the same terms, under SSNA-1(Y15E/Y97E) (natural protein) stands 25%.
